The numbers were not newly measured in patent US20140031355A1, “HETEROCYCLIC COMPOUNDS AND THEIR USES” (Amgen Inc., priority 2010, published 2014), which cites them from elsewhere.

Sequences of proteins named here, by UniProt entry; tags and fusion partners are left off.
UniProt P42338, whole entry, species assumed: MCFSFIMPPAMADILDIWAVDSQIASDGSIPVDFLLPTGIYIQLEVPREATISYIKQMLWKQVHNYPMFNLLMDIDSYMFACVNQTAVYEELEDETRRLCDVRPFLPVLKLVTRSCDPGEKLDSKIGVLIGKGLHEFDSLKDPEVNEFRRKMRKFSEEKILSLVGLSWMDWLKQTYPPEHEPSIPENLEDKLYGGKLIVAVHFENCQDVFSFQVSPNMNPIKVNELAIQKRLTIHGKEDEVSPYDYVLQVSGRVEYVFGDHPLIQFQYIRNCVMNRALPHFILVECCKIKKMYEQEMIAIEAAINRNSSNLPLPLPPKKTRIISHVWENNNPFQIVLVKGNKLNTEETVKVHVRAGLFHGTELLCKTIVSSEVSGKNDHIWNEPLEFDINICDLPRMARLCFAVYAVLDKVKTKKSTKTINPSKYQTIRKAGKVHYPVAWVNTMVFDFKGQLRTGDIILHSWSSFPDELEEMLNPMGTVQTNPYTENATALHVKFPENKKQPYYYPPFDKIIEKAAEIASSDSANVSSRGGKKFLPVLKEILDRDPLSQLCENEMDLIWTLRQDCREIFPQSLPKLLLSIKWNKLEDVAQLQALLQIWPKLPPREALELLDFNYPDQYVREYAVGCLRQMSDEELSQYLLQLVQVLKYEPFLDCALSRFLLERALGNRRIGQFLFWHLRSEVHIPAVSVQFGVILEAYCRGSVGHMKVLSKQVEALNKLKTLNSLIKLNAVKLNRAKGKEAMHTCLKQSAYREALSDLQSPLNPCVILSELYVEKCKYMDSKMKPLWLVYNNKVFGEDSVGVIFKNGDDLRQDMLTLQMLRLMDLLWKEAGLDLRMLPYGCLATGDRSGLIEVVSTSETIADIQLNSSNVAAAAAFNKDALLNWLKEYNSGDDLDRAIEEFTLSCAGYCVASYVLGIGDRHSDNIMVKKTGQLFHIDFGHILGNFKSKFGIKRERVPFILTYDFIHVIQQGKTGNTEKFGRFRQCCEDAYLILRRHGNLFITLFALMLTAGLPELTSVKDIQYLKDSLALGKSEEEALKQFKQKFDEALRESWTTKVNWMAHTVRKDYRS

The data set concerns the target p110β (Homo sapiens, UniProt P42338). Particulars: quantity not given; read-out: potency on beta.

Take `Cc1cc(C(C)Nc2ccccc2)c2nc(N3CCOCC3)cc(=O)n2c1` (stereo not shown) [TGX-221]: the IC50 was 7 nM.
